Key:
HSA Peptide 40 = target: T1, HSA Peptide 40 (Homo sapiens, UniProt P02768); experiment: biochemical; format: binding; conditions: for binding to HSA Peptide 40: Biacore SPR screen, immobilized HSA Peptide 40 and vice versa
T1 construct: HSA 40 (479-496); purchased New England Peptide (Gardner, MA, USA)
Method: All peptides were run in the pM-uM concentration ranges. […] Short gaps in binding curves at transition times are from removal of solvent spikes during analysis. Binding kinetics were determined via Biacore Evaluation Software analysis of SPR sensograms. […] Structure, PDB 1BJ1, was visualized using UCSF Chimera.
The 3D structure of the positive variable region peptides were predicted by PEPFOLD 3.0 to compare to their beta hairpin structure within the full antibody[9]–[11] (Fig. 4d).
(§1) Peptides were run in the pM-uM concentration range. […] (b) Multiple sequence alignment of the variable region peptides in question, performed by Clustal Omega. […] (d) 3D structure prediction of peptides in solution performed by PEP-FOLD 3.0, visualized in Chimera. […] Pembrolizumab included as a negative control.
Peptides were re-suspended and stored in HBS running buffer at either 5 or 10 mg/ml, with up to 10% DMSO added as needed. All antibodies, peptides, as well as HSA, were immobilized on Biacore (GE Healthcare, Chicago, IL) CM5 chips via amine coupling according to manufacture protocol. Immobilization scouting was performed with pH 4.0–5.5 acetate at micromolar concentration ranges, to determine ideal immobilization conditions. […] All peptides and proteins were screened at multiple concentrations from pico to millimolarity, with an association time of 120 to 180 seconds and a dissociation time from 180 to 1200 seconds. Binding kinetics were determined using Biacore Evaluation Software and a 1:1 fit model.
The mixture was frozen, evaporated, and re-suspended in HPLC grade water with 0.1% trifluoroacetic acid. The digest was applied to a Waters X-Bridge Protein BEH C4 column (Waters, Milford, MA) and eluted off at a flow rate of 1 ml/min and a gradient of 0–60% Acetonitrile with 0.1% trifluroacetic acid over 60 minutes.

Amino acid sequences for entries named in this document (tags omitted). Residues count along the entry.
UniProt P02768, 25-609: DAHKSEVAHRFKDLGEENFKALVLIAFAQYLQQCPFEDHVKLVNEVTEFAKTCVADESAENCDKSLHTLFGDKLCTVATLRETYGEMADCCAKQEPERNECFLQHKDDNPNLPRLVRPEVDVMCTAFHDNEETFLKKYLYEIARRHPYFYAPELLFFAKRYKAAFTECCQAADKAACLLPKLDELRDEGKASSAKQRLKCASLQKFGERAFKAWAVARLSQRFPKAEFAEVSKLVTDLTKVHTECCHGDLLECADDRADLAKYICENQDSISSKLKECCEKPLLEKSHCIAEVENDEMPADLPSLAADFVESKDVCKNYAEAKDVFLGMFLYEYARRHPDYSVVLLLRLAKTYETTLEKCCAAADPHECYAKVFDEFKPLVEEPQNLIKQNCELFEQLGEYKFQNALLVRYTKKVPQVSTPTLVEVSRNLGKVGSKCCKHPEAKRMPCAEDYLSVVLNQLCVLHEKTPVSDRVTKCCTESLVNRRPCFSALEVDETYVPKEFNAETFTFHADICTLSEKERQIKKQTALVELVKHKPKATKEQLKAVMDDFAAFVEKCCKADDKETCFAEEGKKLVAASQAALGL

Human Serum Albumin = Human Serum Albumin (Homo sapiens, UniProt P02768); experiment: Biacore SPR, antibody variable domain peptides and antibodies against human serum albumin; format: binding; conditions: for binding to human serum albumin: Biacore SPR screen, immobilized HSA and vice versa
Description: as §1, with “The 3D structure of the positive variable region peptides were predicted by PEPFOLD 3.0 to compare to their beta hairpin structure within the full antibody[9]-[11] (Fig. 4d). […] Peptides” for “Peptides”

Compound	binding to HSA Peptide 40 (HSA Peptide 40)	binding to human serum albumin (Human Serum Albumin)	Kd (Human Serum Albumin; human, Biacore SPR, CM5 amine coupling, peptide over immobilized HSA and vice versa, pM-uM, 1:1 fit, read-out: Kinetic Binding Parameters Against Human Serum Albumin: KD)	Kd (HSA Peptide 40)	kon (HSA Peptide 40; read-out: Kinetic Binding Parameters against HSA Peptide 40: kon)
CSCC[C@H](NC(=O)[C@H](C)NC(=O)[C@H](Cc1ccc(O)cc1)NC(=O)[C@H](Cc1ccccc1)NC(=O)CNC(=O)[C@H](CC(=O)O)NC(=O)CNC(=O)CNC(=O)[C@H](Cc1c[nH]c2ccccc12)NC(=O)[C@H](CCCNC(=N)N)NC(=O)[C@H](CO)NC(=O)[C@H](CS)NC(=O)[C@H](Cc1ccc(O)cc1)NC(=O)[C@@H](N)Cc1ccc(O)cc1)C(=O)N[C@@H](CC(=O)O)C(=O)N[C@@H](Cc1ccc(O)cc1)C(=O)N[C@@H](Cc1c[nH]c2ccccc12)C(=O)NCC(=O)N[C@@H](CCC(N)=O)C(=O)NCC(=O)O [TVP1]	bound both analytes	bound both analytes	5.33e+06 pM		
CC(C)C[C@H](NC(=O)[C@@H](NC(=O)CNC(=O)[C@H](CCC(N)=O)NC(=O)CNC(=O)[C@H](Cc1c[nH]c2ccccc12)NC(=O)[C@@H](NC(=O)[C@@H](N)CC(=O)O)C(C)C)[C@@H](C)O)C(=O)N[C@H](C(=O)N[C@H](C(=O)N[C@H](C(=O)N[C@@H](CO)C(=O)N[C@@H](CO)C(=O)N[C@@H](C)C(=O)N[C@@H](CO)C(=O)O)C(C)C)[C@@H](C)O)C(C)C [Bevacizumab Heavy Chain 12]				0.743 µM	26.3 M⁻¹ s⁻¹
CC(C)C[C@H](NC(=O)[C@@H](NC(=O)CNC(=O)[C@H](CCC(N)=O)NC(=O)CNC(=O)[C@H](Cc1c[nH]c2ccccc12)NC(=O)[C@@H](NC(=O)[C@H](CC(=O)O)NC(=O)[C@H](Cc1ccccc1)NC(=O)[C@H](Cc1ccc(O)cc1)NC(=O)[C@H](Cc1c[nH]c2ccccc12)NC(=O)[C@H](Cc1c[nH]cn1)NC(=O)[C@@H](N)CO)C(C)C)[C@@H](C)O)C(=O)N[C@H](C(=O)N[C@H](C(=O)N[C@H](C(=O)N[C@@H](CO)C(=O)N[C@@H](CO)C(=O)N[C@@H](C)C(=O)N[C@@H](CO)C(=O)N[C@H](C(=O)O)[C@@H](C)O)C(C)C)[C@@H](C)O)C(C)C [BVP2]	bound both analytes	bound both analytes			

— PMC5670201 (Scientific Reports, 2017)
